Reference: ChEMBL document CHEMBL4017450, “Synthesis and carbonic anhydrase inhibition of a series of SLC-0111 analogs” (Bioorg Med Chem, 2017)

Key:
[1] = target: Carbonic anhydrase 1 (Homo sapiens, UniProt P00915); assay: Inhibition of human recombinant carbonic anhydrase 1 preincubated for 15 mins prior to testing measured for 10 to 100 secs by phenol red-based stopped-flow CO2 hydration assay
[2] = target: Carbonic anhydrase 9 (Homo sapiens, UniProt Q16790)

| SMILES | Ki [1] | Ki [2] |
| --- | --- | --- |
| NS(=O)(=O)c1ccc(NC(=O)Nc2cccc(Cl)c2)cc1 | 158 nM | – |
| NS(=O)(=O)c1ccc(NC(=O)Nc2c(Cl)c(Cl)c(Cl)c(Cl)c2Cl)cc1 | – | 6.3 nM |

Continued, values first:

| Ki [1] | Ki [2] | SMILES |
| --- | --- | --- |
| – | 8.4 nM | NS(=O)(=O)c1ccc(NC(=O)Nc2ccc(C(F)(F)F)cc2Cl)cc1 |
| – | 6.3 nM | NS(=O)(=O)c1ccc(NC(=O)Nc2ccc(Br)cc2F)cc1 |
| – | 8.7 nM | NS(=O)(=O)c1ccc(NC(=O)Nc2cccc(C(F)(F)F)c2F)cc1 |
| – | 6.1 nM | NS(=O)(=O)c1ccc(NC(=O)Nc2c(F)cccc2F)cc1 |
